The target in the assay is recombinant human E-selectin/CD63E Fc Chimera (Homo sapiens, UniProt P16581). Briefly: E-selectin activity, analysis by SPR (Biacore X100). As to conditions: Biacore X100, CM5 chip, E-selectin Fc chimera captured on anti-human IgG (Fc) antibody.

By UniProt entry, the sequences of proteins in these tests, tags left out. Chains listed by the source or under a name are the forms on record and can include a tag or linker. Residues count along the entry.
UniProt P16581, 22-556 with tags or gaps limits assumed: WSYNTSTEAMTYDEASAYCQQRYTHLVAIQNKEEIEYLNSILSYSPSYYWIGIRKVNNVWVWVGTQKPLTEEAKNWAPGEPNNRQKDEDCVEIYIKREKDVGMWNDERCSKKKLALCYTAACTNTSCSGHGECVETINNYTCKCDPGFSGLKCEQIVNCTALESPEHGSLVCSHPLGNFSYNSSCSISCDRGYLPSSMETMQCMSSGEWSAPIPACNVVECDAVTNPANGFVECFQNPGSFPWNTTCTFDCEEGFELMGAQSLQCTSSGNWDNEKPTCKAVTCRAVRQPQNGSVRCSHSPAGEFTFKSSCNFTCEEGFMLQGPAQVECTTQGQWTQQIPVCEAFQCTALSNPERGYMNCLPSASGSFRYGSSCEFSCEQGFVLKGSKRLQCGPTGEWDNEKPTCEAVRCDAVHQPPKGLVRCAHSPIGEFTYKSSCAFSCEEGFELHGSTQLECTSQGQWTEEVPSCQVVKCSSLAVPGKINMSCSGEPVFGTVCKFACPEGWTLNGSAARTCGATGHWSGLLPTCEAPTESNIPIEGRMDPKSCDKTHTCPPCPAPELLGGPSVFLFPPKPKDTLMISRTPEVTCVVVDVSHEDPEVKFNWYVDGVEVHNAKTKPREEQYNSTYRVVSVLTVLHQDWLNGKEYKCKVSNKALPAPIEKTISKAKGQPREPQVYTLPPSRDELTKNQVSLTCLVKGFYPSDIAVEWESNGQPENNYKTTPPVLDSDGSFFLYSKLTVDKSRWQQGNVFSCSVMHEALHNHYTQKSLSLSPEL

Experimental findings from patent US11072625B2 (GLYCOMIMETICS, INC., priority 2016, dated 2021) are described below.

Broadly, the Kd is the concentration at which binding is half-saturated. As for `CC[C@H]1C[C@@H](C(=O)NCCNC(=O)CCOCCOCCOCCOCCOCCOCCOCCOCCOCCOCCOCCOCCOCCOCCOCCOCCOCCOCCOCCOCCOCCOCCOCCOCCOCCC(=O)NCCNC(=O)[C@@H]2C[C@H](CC)[C@@H](O[C@@H]3O[C@@H](C)[C@@H](O)[C@@H](O)[C@@H]3O)[C@H](O[C@@H]3O[C@H](CO)[C@H](O)[C@H](O[C@@H](CC4CCCCC4)C(=O)N4CCC4)[C@H]3NC(C)=O)C2)C[C@@H](O[C@@H]2O[C@H](CO)[C@H](O)[C@H](O[C@@H](CC3CCCCC3)C(=O)N3CCC3)[C@H]2NC(C)=O)[C@@H]1O[C@@H]1O[C@@H](C)[C@@H](O)[C@@H](O)[C@@H]1O`, the Kd worked out at 2.3 nM.

As to `CC[C@H]1C[C@@H](C(=O)NCCNC(=O)c2cn(CCOCCOCCOCCOCCOCCn3cc(C(=O)NCCNC(=O)[C@@H]4C[C@H](CC)[C@@H](O[C@@H]5O[C@@H](C)[C@@H](O)[C@@H](O)[C@@H]5O)[C@H](O[C@@H]5O[C@H](CO)[C@H](O)[C@H](O[C@@H](CC6CCCCC6)C(=O)N6CCC6)[C@H]5NC(C)=O)C4)nn3)nn2)C[C@@H](O[C@@H]2O[C@H](CO)[C@H](O)[C@H](O[C@@H](CC3CCCCC3)C(=O)N3CCC3)[C@H]2NC(C)=O)[C@@H]1O[C@@H]1O[C@@H](C)[C@@H](O)[C@@H](O)[C@@H]1O`, the Kd was 2 nM.

Consider `CCC1CC(C(=O)NCCNC(=O)c2cn(CCOCCOCCOCCOCCOCCC(=O)NCCCCC(NC(=O)CCOCCOCCOCCOCCOCCn3cc(C(=O)NCCNC(=O)C4CC(CC)C(OC5OC(C)C(O)C(O)C5O)C(OC5OC(CO)C(O)C(OC(CC6CCCCC6)C(=O)O)C5NC(C)=O)C4)nn3)C(=O)O)nn2)CC(OC2OC(CO)C(O)C(OC(CC3CCCCC3)C(=O)O)C2NC(C)=O)C1OC1OC(C)C(O)C(O)C1O` (stereo not shown), for which the Kd turned out to be 5.5 nM.

In the case of `CCC1CC(C(=O)NCCNC(=O)c2cn(CCOCCOCCOCCOCCOCCC(=O)NCCCCC(NC(=O)CCOCCOCCOCCOCCOCCn3cc(C(=O)NCCNC(=O)C4CC(CC)C(OC5OC(C)C(O)C(O)C5O)C(OC5OC(CO)C(O)C(OC(CC6CCCCC6)C(=O)O)C5NC(C)=O)C4)nn3)C(=O)OCc3ccccc3)nn2)CC(OC2OC(CO)C(O)C(OC(CC3CCCCC3)C(=O)O)C2NC(C)=O)C1OC1OC(C)C(O)C(O)C1O` (stereo not shown), the Kd was 5.1 nM.
